{
  "source": "patent US20250041292A1",
  "about": "“METHODS FOR TREATING PRIMARY IMMUNODEFICIENCY” (X4 Pharmaceuticals, Inc., priority 2021, published 2025)",
  "key": {"[1]": {"assay": "Tolerability in clinical studies (healthy volunteers and patients, as of May 2019)", "type": "in vivo, human", "details": "approximately 193 healthy volunteers and patients treated", "source_text": "As of May 2019, approximately 193 healthy volunteers and patients had been treated with mavorixafor in clinical studies (n=70 healthy volunteers, n=16 HIV, n=99 oncology, n=8 WHIM syndrome)."}, "total peripheral WBCs": {"test_system": "total peripheral WBCs", "assay": "Analysis of mavorixafor effects on WBCs across multiple disease states", "details": "across all indications, alone or in combination with other drugs"}},
  "data": [
    {"substance": "mavorixafor", "values": [
      {"measurement": "tolerability", "setting": "[1]", "value": "generally well tolerated"},
      {"measurement": "tolerability", "setting": "total peripheral WBCs", "value": "generally well tolerated"}
    ]}
  ]
}
